Measurements from paper PMC12597941 (Frontiers in Pharmacology, 2025).

Experiment: Untargeted LC-HRMS metabolite profiling after oral PAC administration
Details: after oral PACs; c = detected in mice plasma
Procedure: Animals to be sacrificed at 6 h (only test item-treated animals) were placed in metabolic cages (650-0100, Nalgene) for the collection of urine. Urine was stabilized with a final concentration of 4 mM NaN3 and stored at 4 °C. At 1 h and 6 h after the administration of the vehicle (1 h only) or test items (1 and 6 h), animals from the respective treatment groups were euthanized by CO2 inhalation. Blood was obtained by cardiac puncture and drawn in lithium-heparin-containing vials for the preparation of plasma by centrifugation (4,000 rpm, 4 °C, 10 min). Plasma was stored at −80 °C until bioanalytical analysis. Samples of the mixed intestinal content were obtained by scraping the small intestine, cecum, and large intestine into a 5-mL tube. Tubes were covered with gaseous N2 and stored at −80 °C.
The supernatant was evaporated to dryness and resuspended in 150 µL 1% FA in H2O/ACN (9/1, v/v) for analysis.
Rat intestinal content was first freeze-dried and finely crushed. […] Ethyl acetate extracts were evaporated to dryness and then resuspended in 300 µL 1% FA in H2O/ACN (9/1, v/v) for untargeted LC-HRMS analysis. […]
Compound discoverer 3.1 (CD, Thermo Fisher Scientific, Waltham, MA, United States of America) was used for untargeted and novel feature detection. […] Then, unknown compounds were detected and grouped with RT tolerance of 0.5 min and 5 ppm mass deviation. […]

Vanillic acid glucuronide [M05]
Compartment in which the metabolite was detected: Urine
